This passage reports growth rescue (activation) results from PubChem BioAssay AID1347070 (National Center for Advancing Translational Sciences (NCATS), 2019).

Only a part is listed here, and it is no random draw. Calls of active or inactive are those of the source. Calls come from the whole dose curve; as a rule, active = well fitted activation curve with a large enough effect; inconclusive = small, poorly fitted or top-dose-only effect; inactive = flat fitted curve, though single readings scatter.

The assay is described as follows: qHTS of alpha-syn Inhibitors: NCGC Sytravon Library Screen. Note: 0% is about no effect. To be noted: S. cerevisiae alpha-synuclein toxicity rescue, BacTiter-Glo growth, 24 h; at 46.1 µM (top of the series). From the text:
The goal of this project is to identify new chemical probes capable of reversing the toxicity associated with the Parkinson disease-related protein, alpha-synuclein. Compounds will be selected on their ability to restore growth in yeast cells expressing toxic levels of alpha-synuclein. These compounds will provide a complementary approach to deciphering the tangled mechanisms of toxicity and protection that we have uncovered through genome-wide genetic screens and are beginning to uncover in a large-scale proteomics analysis with mass spectroscopy. To this end, a miniaturized assay was developed to be screened against the Molecular Libraries Small Molecule Repository (MLSMR) to discover alpha-synuclein inhibitors. […] The phenotype of interest will be that of an Activator and this screen is run against the NCGC Sytravon Library collection. NIH Chemical Genomics Center [NCGC] NIH Molecular Libraries Probe Centers Network [MLPCN] MLPCN Grant: NS060957 Assay Submitter (PI): Susan Lindquist, Whitehead Institute/MIT
Dispense 2.5 microL yeast galactose medium per 1536-well plate, pin compound, dispense 2.5 microL alpha-synuclein expressing yeast in galactose medium at OD600=0.02 (pregrown in raffinose medium to mid-log phase) per well, incubate for 24 hr at 30 deg C, and cell growth will be measured using 5 microL of Bactiter/Glo reagent to entire plate and read using Luminescence Protocol in ViewLux.
Background: In qHTS, concentration-response curves come from the screen itself.
Turning to `O=P1(N(CCCl)CCCl)NCCC(C(F)(F)F)O1` (stereo unspecified), the growth rescue (activation) is inactive: -0.337%. Take `CC(C)(C)C(=O)NC(Sc1ncccn1)C(Cl)(Cl)Cl` (stereo unspecified): the growth rescue (activation) is inactive: -0.473%.

Take `CCOP(=O)(Nc1ccc(C)cn1)OCC`: the growth rescue (activation) was inactive: -18.3%. As for `CCC1=CC2Cc3nc4ccc(Cl)cc4c(N)c3C(C1)C2` (stereo unspecified), the figure is inactive: 5.13%. As for `O=[As](O)(c1cccs1)c1cccs1`, the figure is inactive: -1.43%. As for `Nc1cccc([As](=O)(O)c2ccccc2)c1`, the figure is inactive: -2.74%; as for `CN(C)C(=O)c1cc([N+](=O)[O-])cc2c1-c1c(cc([N+](=O)[O-])cc1[N+](=O)[O-])C2=O`, inactive: 11%; as for `N#CCCN(C(=O)COC(=O)C(O)(c1ccccc1)c1ccccc1)c1ccc(F)cc1`, inactive: -1.94%. As to `Nc1ccccc1[As](=O)(O)c1ccccc1`, the growth rescue (activation) was inactive: -0.923%. Consider `CS(=O)(=O)c1cc([N+](=O)[O-])c2no[n+]([O-])c2c1`, for which the growth rescue (activation) was inactive: 26%. The same measure for `Nc1cccc2c([As](=O)(O)O)cccc12`: inactive: -6.79%; for `COc1cc(C(=O)NCC2(N3CCOCC3)CCCCC2)cc(Cl)c1OC(C)C`: inactive: -0.0069%; for `COc1cc(I)ccc1[As](=O)(O)O`: inactive: 7.13%. As for `CC(C)NC(=O)NP(=O)(Oc1ccccc1)Oc1ccccc1`, the figure is inactive: -6.09%. As for `O=[As](O)(c1ccc(O)cc1)c1ccccc1O`, the figure is inactive: 1.15%. As to `O=[N+]([O-])c1ccc(Nc2ccc(Oc3ccc([N+](=O)[O-])cc3[N+](=O)[O-])cc2)c([N+](=O)[O-])c1`, the growth rescue (activation) is inactive: 2.38%.

For the compound `COP(=O)(OC)N1CC1c1ccccc1` (stereo unspecified), the growth rescue (activation) was inactive: -0.611%.

For the compound `O=C(O)C(O)c1ccc(N(CCCl)CCCl)cc1` (stereo unspecified), the growth rescue (activation) is inactive: 0.572%.

Regarding `CSc1ccc(Nc2c([N+](=O)[O-])cc([N+](=O)[O-])cc2[N+](=O)[O-])cc1`, the growth rescue (activation) was inactive: -22.3%. As for `O=C(O)C(=O)c1ccc(N(CCCl)CCCl)cc1`, the figure is inactive: -11.2%; as for `CC(C)c1nc(Nc2ccccc2)n(P(=O)(N(C)C)N(C)C)n1`, inactive: 3.42%; as for `CC(C)=N/N=C(\N)N[N+](=O)[O-]`, inactive: -1.81%. As for `c1cc(-c2nn[nH]n2)ccc1-c1nn[nH]n1`, the figure is inactive: -1.76%. The same measure for `Nc1ccc([As](=O)(O)c2ccc(N)cc2)cc1`: inactive: -0.797%; for `O=[N+]([O-])c1cc([N+](=O)[O-])c(CCNc2ccccc2)c([N+](=O)[O-])c1`: inactive: -2.33%; for `CCN(N=Nc1nonc1N)c1nonc1N`: inactive: 1.65%.

On to `Nc1cccc2ccc([As](=O)(O)O)cc12`, for which the growth rescue (activation) is inactive: 0.639%. As for `O=C(O)c1ccccc1[As](=O)(O)O`, the figure is inactive: -5.75%; as for `CN(C)P(=O)(N(C)C)n1c(Nc2ccccc2)nnc1-c1ccccc1`, inactive: 15.3%; as for `COc1ccccc1OP(=O)(Nc1ccc(C)cn1)Oc1ccccc1OC`, inactive: -27%. As for `Clc1ccc(Cl)c(NC2=NCC(CBr)S2)c1` (stereo unspecified), the figure is inactive: 5.81%.

Turning to `Cc1ccc(N/C(=N/P(=O)(N2CCOCC2)N2CCOCC2)N2CCOCC2)cc1`, the growth rescue (activation) was inactive: -9.6%. Take `CC(=O)Nc1ccc([As](=O)(O)O)c(O)c1`: the growth rescue (activation) is inactive: 5.21%. As for `CC(C)(C)C(=O)NC(Sc1ccccc1)C(Cl)(Cl)Cl` (stereo unspecified), the figure is inactive: 17.2%; as for `Cc1ccc(OP(=O)(Nc2ccccn2)Oc2ccc(C)cc2)cc1`, inactive: 1.39%; as for `O=C(NC1CCS(=O)(=O)C1)NP(=S)(Oc1ccccc1)Oc1ccccc1` (stereo unspecified), inactive: -6.56%. Turning to `c1ccc(-c2nn[nH]n2)c(-c2nn[nH]n2)c1`, the growth rescue (activation) is inactive: 4.4%. The same measure for `Nc1ccc([As](=O)(O)c2ccc([N+](=O)[O-])cc2)cc1`: inactive: -7.51%; for `O=[As](O)(c1ccccc1)c1ccc(O)cc1`: inactive: 4.51%; for `O=P(Nc1nc2ccccc2s1)(c1ccccc1)c1ccccc1`: inactive: 6.46%. As for `CC(C)C(=O)NC(Sc1ccccc1)C(Cl)(Cl)Cl` (stereo unspecified), the figure is inactive: -2.5%.
